Experimental findings from patent US20120039813A1, “INTRINSICALLY COLORED, LUMINESCENT SILK FIBROIN AND A METHOD OF PRODUCING THE SAME” (priority 2009, published 2012) are described below.

The data set relates to silkworm. Nature of the data set: Quantity of various dyes in sericin, fibroin and gland content of dye-fed silkworms. The conditions noted are these: FIG. 12, result in words.

In the case of rhodamine 116, the “Amount of dye present in silk (sericin and fibroin) and silkworm” value was “substantial amounts in both sericin and fibroin”; the “Distribution of dye between silk sericin and fibroin” value is reported as “more in silk sericin than fibroin”.
